This test concerns the target T1, wild-type human ghrelin receptor (GHSR), cryo-EM construct (human, UniProt Q92847).
T1 construct: growth hormone secretagogue receptor (ghrelin receptor), human, wild type; also called growth hormone secretagogue receptor; source: Sf9 insect cells (baculovirus), purified (nickel Sepharose, anti-Flag M1 resin, SEC) in detergent; not shown: Flag, N-terminal, kept
In words: cryo-EM structure; ghrelin-GHSR-Gi-scFv16 complex; GHSR mixed with Gi heterotrimer 1:1.2, apyrase, anti-Flag M1 resin, 1.2 molar excess scFv16, SEC in 20 mM HEPES pH 7.5, 100 mM NaCl, 0.002% MNG, 0.001% CHS, 1 μM ghrelin; Conformer 1 at 2.7 Å and a minor Conformer 2 at 3.5 Å. The settings on record: both partners purified.

Protein sequences, listed by entry. Tags and fused reporters are not part of them.
UniProt Q92847, whole entry: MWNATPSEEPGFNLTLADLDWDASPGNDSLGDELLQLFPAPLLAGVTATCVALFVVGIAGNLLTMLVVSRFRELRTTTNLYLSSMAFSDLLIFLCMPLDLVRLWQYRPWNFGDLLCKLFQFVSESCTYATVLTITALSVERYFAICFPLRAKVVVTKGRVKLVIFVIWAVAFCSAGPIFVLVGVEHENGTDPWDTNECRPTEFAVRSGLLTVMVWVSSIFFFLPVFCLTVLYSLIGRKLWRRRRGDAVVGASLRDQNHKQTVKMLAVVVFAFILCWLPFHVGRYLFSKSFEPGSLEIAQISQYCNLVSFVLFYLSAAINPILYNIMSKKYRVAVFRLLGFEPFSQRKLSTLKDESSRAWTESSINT

B1: wild-type Gαi1 (natural protein, human)
chain: MGCTLSAEDKAAVERSKMIDRNLREDGEKAAREVKLLLLGAGESGKSTIVKQMKIIHEAGYSEEECKQYKAVVYSNTIQSIIAIIRAMGRLKIDFGDSARADDARQLFVLAGAAEEGFMTAELAGVIKRLWKDSGVQACFNRSREYQLNDSAAYYLNDLDRIAQPNYIPTQQDVLRTRVKTTGIVETHFTFKDLHFKMFDVGGQRSERKKWIHCFEGVTAIIFCVALSDYDLVLAEDEEMNRMHESMKLFDSICNNKWFTDTSIILFLNKKDLFEEKIKKSPLTICYPEYAGSNTYEEAAAYIQCQFEDLNKRKDTKEIYTHFTCATDTKNVQFVFDAVTDVIIKNNLKDCGLF
notes: Nucleotide-free in the complex (apyrase); also called human Gαi; source: Sf9 insect cells, co-expressed with Gβ1 and Gγ2, purified (nickel resin, anion exchange)
Turning to B1, the binding result is given as “binds”.

The values above are taken from paper PMC8568970 (Nature Communications, 2021).
